Measurements taken from patent US9718825B2, “N-(4-(azaindazol-6-yl)-phenyl)-sulfonamides and their use as pharmaceuticals” (priority 2013, dated 2017).

Protein sequences, listed by entry. Tags and fused reporters are not part of them.
UniProt O00141, whole entry: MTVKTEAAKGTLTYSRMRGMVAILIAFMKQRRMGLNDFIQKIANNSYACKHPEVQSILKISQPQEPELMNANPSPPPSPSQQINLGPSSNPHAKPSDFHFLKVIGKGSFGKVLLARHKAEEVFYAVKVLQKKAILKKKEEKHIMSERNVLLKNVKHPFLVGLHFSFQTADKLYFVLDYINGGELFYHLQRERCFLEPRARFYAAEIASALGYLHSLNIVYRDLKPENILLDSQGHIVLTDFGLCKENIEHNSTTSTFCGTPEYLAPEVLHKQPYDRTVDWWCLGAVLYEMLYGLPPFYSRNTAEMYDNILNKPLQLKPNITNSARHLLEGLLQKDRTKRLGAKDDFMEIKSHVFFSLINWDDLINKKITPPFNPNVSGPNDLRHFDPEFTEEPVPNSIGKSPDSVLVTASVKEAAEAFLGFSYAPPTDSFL

Experiments:
[1] = molecular target: recombinant human SGK-1 enzyme (Homo sapiens, UniProt O00141); experiment: Enzymatic activity assay: SGK-1 substrate peptide phosphorylation (Caliper lab-chip mobility shift); type: biochemical; conditions: read-out: IC50 values for inhibition of SGK-1 enzymatic activity, peptide substrate 1 μM, ATP 10 μM, 60 min at 37° C.
[2] = molecular target: SGK-1 dependent phosphorylation of GSK3beta in U2OS cells (UniProt O00141); experiment: SGK-1 dependent phosphorylation of GSK3beta in U2OS cells overexpressing recombinant SGK-1 and GSK3beta; type: cell-based, human; conditions: read-out: IC50 values for inhibition of SGK-1 dependent phosphorylation of GSK3beta in U2OS cells, 6 h incubation, ratio of phosphorylated GSK3beta to total GSK3beta
[3] = test system: collagen type X (Col10a1) expression in mouse chondrogenic ATDC5 cells; experiment: Chondrocyte hypertrophic differentiation in mouse chondrogenic ATDC5 cells (collagen type X expression); type: cell-based; conditions: read-out: IC50 values for the inhibition of collagen type X expression in mouse chondrogenic ATDC5 cells; Col10a1 expression by quantitative real-time PCR after two weeks of cell culture
Excerpt: D) Determination of the effect on chondrocyte hypertrophic differentiation in mouse chondrogenic ATDC5 cells
The ATDC5 cell assay was used as in vitro model to determine the effects of the compounds of the invention on chondrocyte hypertrophic differentiation by monitoring the expression levels of collagen type X (Col10a1) as specific marker of chondrocyte hypertrophy.
Background: ATDC5 cells are a clonal mouse embryonic cell line derived from multipotent AT805 teratocarcinoma cells (Atsumi, T. et al., A chondrogenic cell line derived from a differentiating culture of AT805 teratocarcinoma cells, Cell Differ. Dev. 1990, 30, 109-116). The cells can undergo insulin-dependent chondrogenic cell differentiation entailing distinct differentiation stages starting from an undifferentiated, subconfluent stage, a condensation stage, a cartilage nodule formation stage and a calcification stage within 45 days of in vitro culture. Chondrogenic differentiation can be shown by measuring the expression of the cartilage main collagen (Col2a1) and aggrecan (AGC1) and glycosaminoglycan-staining with Alcian Blue within two weeks after insulin-triggered differentiation, and hypertrophic differentiation can be monitored by the expression of collagen type X (Col10a1), a specific marker of chondrocyte hypertrophy within 21 days of in vitro culture. (Shukunami, C. et al., Chondrogenic Differentiation of Clonal Mouse Embryonic Cell Lne ATDC5 In Vitro: Differentiation-dependent Gene Expression of Parathyroid Hormone (PTH)/PTH-related Peptide Receptor, J. Cell Biol. 1996, 133, 457-468). Growth factor BMP-2 is known to stimulate cell differentiation and can stimulate early and late-phase ATDC5 differentiation (Shukunami, C. et al., Sequential Progression of the Differentiation Program by Bone Morphogenetic Protein-2 in Chondrogenic Cell Line ATDC5, Exp. Cell Res. 1998, 241, 1-11). Thyroid hormone triiodothyronine (T3) promotes hypertrophic differentiation of growth plate chondrocytes (Robson, H. et al., Thyroid Hormone Acts Directly on Growth Plate Chondrocytes to Promote Hypertrophic Differentiation and Inhibit Clonal Expansion and Cell Proliferation, Endocrinology 2000, 141, 3887-3897). Addition of BMP2 and T3 can accelerate ATDC5 hypertrophic differentiation leading to the strong induction Col10a1 expression between 10-14 days. SGK-inhibitors were added to differentiating ATDC5 cells for 14 days and Col10a1 gene expression was quantified to determine effects on chondrocyte hypertrophic differentiation.
Cell assay description: ATDC5 cells were maintained in 300 cm^2 tissue culture flasks in DMEM/Ham's F12+5% FCS supplemented with 10 μg/ml human transferrin, 30 nM sodium selenite, 50 μg/ml kanamycin and grown at 37° C. in 5% CO2 in 95% air. To initiate cell differentiation, 9.9×10^4 cells were plated in 24 well plates and grown for 2 days. Medium was exchanged with DMEM/Ham's F12+5% FCS supplemented with 10 μg/ml human transferrin, 30 nM sodium selenite, 50 μg/ml ascorbic acid and 1 μg/ml BMP2. The assay was run in triplicates, compounds were added in […], and medium changed every 2-3 days including supplementation of compound. At day 7 after initiation of cell differentiation, 1 μM T3 was used as additional supplement in the cell culture.
After two weeks of cell culture, RNA was isolated and converted to cDNA for determination of gene expression by quantitative real-time PCR. Cells were lysed in 600 μl of RLT-buffer (Qiagen) and total RNA was isolated using the RNA-easy Mini RNA isolation Kit (Qiagen) which was run on a Qiacube system (Qiagen) according to the supplier's instructions. RNA was isolated in 30 μl of pure water and the RNA content measured by UV-spectroscopy (Nanodrop, Peqlab). For cDNA synthesis 50 ng total RNA was reverse transcribed using the High Capacity cDNA Reverse Transcription Kit (Applied Biosystems, Product Number 4368813) according to the manufacturer's instructions. […]

Structure (SMILES) | IC50 [1] [nM] | IC50 [2] [nM] | IC50 [3] [nM]
Cc1nc(-c2ccc(NS(=O)(=O)c3cscc3Cl)cc2)nc2[nH]nc(N)c12 | 460 | 890 | –
COc1ccc(Cl)c(S(=O)(=O)Nc2ccc(-c3nc(OC4CCN(C)CC4)c4cn[nH]c4n3)cc2)c1 | 4.5 | 21 | –
COc1ccc(C#N)c(S(=O)(=O)Nc2ccc(-c3nc(OC4CCN(C5CCC5)CC4)c4c(C)n[nH]c4n3)cc2)c1 | 3.2 | – | 24
CC(=O)N1CCC(Oc2nc(-c3ccc(NS(=O)(=O)c4cc(F)ccc4F)cc3)nc3[nH]nc(C)c23)CC1 | 2.8 | – | 43
Cc1ccc(C#N)c(S(=O)(=O)Nc2ccc(-c3nc(OC4CCCC(O)C4)c4c(C)n[nH]c4n3)cc2)c1 (centres unmarked) | 1.4 | 760 | –
Cc1ccc(F)c(S(=O)(=O)Nc2ccc(-c3nc(OC4CCN(CCF)CC4)c4c(C)n[nH]c4n3)cc2)c1 | 4.3 | 10 | –
CCCOc1nc(-c2ccc(NS(=O)(=O)c3cc(OC)ccc3F)cc2)nc2[nH]nc(N)c12 | 2.6 | – | 11
Cc1n[nH]c2nc(-c3ccc(NS(=O)(=O)c4cc(Cl)ccc4F)cc3)nc(OC3CC(C)(C)N(C)C(C)(C)C3)c12 | 2.4 | – | 54
COc1ccc(F)c(S(=O)(=O)Nc2ccc(-c3nc(OC4CCN(C5CCC5)CC4)c4c(C)n[nH]c4n3)cc2)c1 | 2.2 | – | 21
O=S(=O)(Nc1ccc(-c2nc(OC3CCN(C4CCC4)CC3)c3cn[nH]c3n2)cc1)c1cc(F)ccc1F | 1000 | – | 580
COc1ccc(Cl)c(S(=O)(=O)Nc2ccc(-c3nc(Oc4ccc(O)nc4)c4c(C)n[nH]c4n3)cc2)c1 | 2.6 | – | 90
Cc1n[nH]c2nc(-c3ccc(NS(=O)(=O)c4cc(Cl)ccc4Cl)cc3)nc(OC3CCN(C4CCC4)CC3)c12 | 3.5 | – | 450
CCOc1nc(-c2ccc(NS(=O)(=O)c3cc(OC)ccc3Cl)cc2)nc2[nH]nc(N)c12 | 3.2 | – | 10
Cc1n[nH]c2nc(-c3ccc(NS(=O)(=O)c4cc(F)ccc4F)cc3)nc(OCCCO)c12 | 120 | – | 360
Cc1n[nH]c2nc(-c3ccc(NS(=O)(=O)c4cc(Cl)ccc4C#N)cc3)nc(OC3CCC(O)CC3)c12 (centres unmarked) | 1.1 | 980 | 61
COc1ccc(Cl)c(S(=O)(=O)Nc2ccc(-c3nc(OC4CCN(C5CCC5)CC4)c4c(C)n[nH]c4n3)cc2)c1 | 3.7 | – | 88

Structure (SMILES) | IC50 [1] [nM] | IC50 [2] [nM] | IC50 [3] [nM]
Cc1n[nH]c2nc(-c3ccc(NS(=O)(=O)c4cc(Cl)ccc4F)cc3)nc(OC3CCN(C4CCC4)CC3)c12 | 2.9 | – | 27
Cc1ccc(F)c(S(=O)(=O)Nc2ccc(-c3nc(OCC4CN(C(C)C)C4)c4c(C)n[nH]c4n3)cc2)c1 | < 0.5 | – | 81
COc1ccc(F)c(S(=O)(=O)Nc2ccc(-c3nc(OCCCN)c4c(C)n[nH]c4n3)cc2)c1 | < 1.5 | 85 | –
Cc1nc(-c2ccc(NS(=O)(=O)c3cc4c(cc3Cl)OCCO4)cc2)nc2[nH]nc(N)c12 | < 1.5 | 1100 | –
COc1ccc(Cl)c(S(=O)(=O)Nc2ccc(-c3nc(OC4CCN(C(C)=O)CC4)c4c(C)n[nH]c4n3)cc2)c1 | 5.8 | – | 16
CCCOc1nc(-c2ccc(NS(=O)(=O)c3cc(Cl)ccc3Cl)cc2)nc2[nH]nc(N)c12 | 48 | – | 140
CCCOc1nc(-c2ccc(NS(=O)(=O)c3cc(OC)ccc3Cl)cc2)nc2[nH]nc(N)c12 | 4.7 | – | 37
COc1ccc(Cl)c(S(=O)(=O)Nc2ccc(-c3nc(OC4CNC4)c4cn[nH]c4n3)cc2)c1 | 5.1 | 110 | –
Nc1n[nH]c2nc(-c3ccc(NS(=O)(=O)c4cc5c(cc4Cl)OCCCO5)cc3)ncc12 | 6.8 | 3500 | –
CC1(C)C(O)C(C)(C)C1Oc1nc(-c2ccc(NS(=O)(=O)c3cc(Cl)ccc3F)cc2)nc2[nH]ncc12 (centres unmarked) | 58 | 420 | –
CCOc1nc(-c2ccc(NS(=O)(=O)c3cc(OC)ccc3F)cc2)nc2[nH]nc(C)c12 | 9.5 | – | 270
CC(=O)N1CCC(Oc2nc(-c3ccc(NS(=O)(=O)c4cc(C)ccc4C#N)cc3)nc3[nH]nc(C)c23)CC1 | 3.2 | – | 120
O=S(=O)(Nc1ccc(-c2nc(C3CC3)c3cn[nH]c3n2)cc1)c1cc(Cl)ccc1F [Example 141] | 1.2 | 140 | –
Cc1ccc(C#N)c(S(=O)(=O)Nc2ccc(-c3nc(OCc4cn[nH]c4)c4cn[nH]c4n3)cc2)c1 | < 1.5 | 5500 | –
Cc1nc(-c2ccc(NS(=O)(=O)c3cc(Cl)c(Cl)s3)cc2)nc2[nH]nc(N)c12 | 380 | 2400 | –
Cc1n[nH]c2nc(-c3ccc(NS(=O)(=O)c4cc(Cl)c(F)cc4F)cc3)nc(OC3CCN(C4CCC4)CC3)c12 | 2.8 | – | 290
